Biological target: OP-hAChE conjugates (Homo sapiens, UniProt P22303)
Experiment: Reactivation of OP-hAChE conjugates by 0.67 mM oxime (kobs)
Conditions: cyclosarin-hAChE conjugate

## C=CCCCn1cc[n+](C)c1C=NO.[I-]
  cyclosarin hAChE reactivation rate compared to 2PAM: comparable to 2PAM

From patent US10172831B2, “Catalytic scavengers of organophosphates to potentiate butyrylcholinesterase (hBChE) as a catalytic bioscavenger and methods for making and using them” (dated 2019)
